According to patent publication US6911443B2 (Bayer Aktiengesellschaft, priority 2000, dated 2005):

Target: human Syk (GST-Syk) (Homo sapiens, UniProt P43405)
Experiment: Syk tyrosine kinase inhibitory assay
Type: biochemical
Settings: read-out: Activity grade (IC50 class); in vitro; compounds as yielded by solid phase synthesis, purity about 40 to 90%

SMILES: COc1ccc(-c2cc3nccn3c(NCCN3CCOCC3)n2)cc1OC
- IC50: 500 to 2000 nM
